Only a part is listed here, and it is no random draw. Calls of active or inactive are those of the source.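 Rule for the calls: active = inhibition above the screen-wide mean inhibition plus 3 SD (cut at about 18% in these data); inactive = the rest.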
What follows are compounds tested against Rho-associated protein kinase 2 (Homo sapiens) (UniProt O75116) (assay: ROCK2 enzymatic activity blockers – biochemical, high-throughput, luminescence, primary screen (AID 604;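 note: plate controls were DMSO wells for no effect and Y-27632 control wells after no-enzyme background subtraction for full effect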)). Conditions: purified ROCK2, Kinase-Glo ATP depletion luminescence; at 6 µM; stronger effect = higher value.

Chains of the proteins cited; added tags and fusions are not shown.
UniProt O75116, whole entry: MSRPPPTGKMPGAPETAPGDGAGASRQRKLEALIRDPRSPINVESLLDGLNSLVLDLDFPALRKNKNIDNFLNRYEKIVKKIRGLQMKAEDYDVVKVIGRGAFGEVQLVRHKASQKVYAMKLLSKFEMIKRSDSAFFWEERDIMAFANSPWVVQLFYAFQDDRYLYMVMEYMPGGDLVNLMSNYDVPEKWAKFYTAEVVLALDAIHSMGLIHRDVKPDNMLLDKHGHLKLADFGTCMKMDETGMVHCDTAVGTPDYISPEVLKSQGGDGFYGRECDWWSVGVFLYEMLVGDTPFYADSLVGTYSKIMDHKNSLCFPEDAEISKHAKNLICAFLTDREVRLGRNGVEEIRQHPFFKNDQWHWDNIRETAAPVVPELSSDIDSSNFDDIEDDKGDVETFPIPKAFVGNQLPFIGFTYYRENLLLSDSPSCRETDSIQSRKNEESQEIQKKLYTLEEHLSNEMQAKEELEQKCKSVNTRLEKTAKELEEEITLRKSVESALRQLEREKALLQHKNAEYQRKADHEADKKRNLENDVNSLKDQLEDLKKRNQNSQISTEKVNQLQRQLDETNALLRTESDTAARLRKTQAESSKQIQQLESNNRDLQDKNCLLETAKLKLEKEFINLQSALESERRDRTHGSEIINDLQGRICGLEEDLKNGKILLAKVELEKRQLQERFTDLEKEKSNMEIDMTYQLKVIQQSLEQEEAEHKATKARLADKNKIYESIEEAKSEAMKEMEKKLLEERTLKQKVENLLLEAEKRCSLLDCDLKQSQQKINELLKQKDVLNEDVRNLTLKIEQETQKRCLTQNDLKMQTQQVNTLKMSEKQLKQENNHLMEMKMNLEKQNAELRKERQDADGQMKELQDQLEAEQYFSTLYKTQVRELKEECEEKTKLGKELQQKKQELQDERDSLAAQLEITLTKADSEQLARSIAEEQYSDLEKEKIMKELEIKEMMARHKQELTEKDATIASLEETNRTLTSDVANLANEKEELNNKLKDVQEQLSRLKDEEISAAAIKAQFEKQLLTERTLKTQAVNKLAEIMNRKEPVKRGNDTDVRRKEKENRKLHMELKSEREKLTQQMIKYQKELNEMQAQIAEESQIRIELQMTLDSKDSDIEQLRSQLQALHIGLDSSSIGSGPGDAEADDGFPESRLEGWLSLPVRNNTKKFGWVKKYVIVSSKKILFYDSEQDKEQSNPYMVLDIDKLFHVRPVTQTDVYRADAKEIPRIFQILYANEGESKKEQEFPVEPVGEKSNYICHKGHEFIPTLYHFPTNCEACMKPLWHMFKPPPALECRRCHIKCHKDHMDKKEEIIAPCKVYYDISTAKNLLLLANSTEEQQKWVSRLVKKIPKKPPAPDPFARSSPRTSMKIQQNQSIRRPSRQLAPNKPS

SMILES | inhibition
Cc1ccc(C)c(NP(C)(=O)Oc2ccccc2)c1 (stereo unspecified) | inactive: 8.3%
Cc1nc2ccc3ccccc3c2s1.O=[N+]([O-])c1cc([N+](=O)[O-])c(O)c([N+](=O)[O-])c1 | inactive: 5.7%
CCOP(C)(=S)SCC(=O)NC(C)C(=O)O (stereo unspecified) | inactive: 0.2%
CP(=S)(Nn1cnnc1)Oc1ccccc1 (stereo unspecified) | inactive: 7.2%
Cc1ccc(NP(C)(=O)Oc2ccccc2)c(C)c1 (stereo unspecified) | inactive: -1.5%
COc1ccccc1OP(C)(=O)Nc1ccc(C)cc1 (stereo unspecified) | inactive: 6.6%
CP(=O)(Nc1ccccn1)Oc1ccccc1 (stereo unspecified) | inactive: 5.7%
COc1ccccc1OP(C)(=O)Nc1ccc(C)c(C)c1 (stereo unspecified) | inactive: 4.9%
Cc1nc2ccc3ccccc3c2o1.O=[N+]([O-])c1cc([N+](=O)[O-])c(O)c([N+](=O)[O-])c1 | inactive: 0.3%
CCN(CC)CC(O)COC(=O)C(O)(c1ccccc1)C1CCCCC1 (stereo unspecified) | inactive: 11.2%
COc1ccccc1OP(C)(=O)Nc1c(C)n(C)n(-c2ccccc2)c1=O (stereo unspecified) | inactive: 3.1%
CP(=O)(Oc1ccccc1)N1CCOC1=O (stereo unspecified) | inactive: 5.7%
CCOP(C)(=S)SCC(=O)NC(C)(CC)C(=O)O (stereo unspecified) | inactive: 1.6%
Cc1ccccc1NP(C)(=O)Nc1ccccc1C | inactive: 3.5%
CN(C)CCOC(=O)C(O)(c1ccccc1)C1CCCCC1 (stereo unspecified) | inactive: 0.9%
CP(=O)(Nc1ccccc1F)Oc1ccccc1 (stereo unspecified) | inactive: 3.5%

Reference: PubChem BioAssay AID604 (The Scripps Research Institute Molecular Screening Center, 2007)
